The values below come from PubChem BioAssay AID633 (Emory University Molecular Libraries Screening Center, 2007).

By UniProt entry, the sequences of proteins in these tests, tags left out.
UniProt Q92731, whole entry: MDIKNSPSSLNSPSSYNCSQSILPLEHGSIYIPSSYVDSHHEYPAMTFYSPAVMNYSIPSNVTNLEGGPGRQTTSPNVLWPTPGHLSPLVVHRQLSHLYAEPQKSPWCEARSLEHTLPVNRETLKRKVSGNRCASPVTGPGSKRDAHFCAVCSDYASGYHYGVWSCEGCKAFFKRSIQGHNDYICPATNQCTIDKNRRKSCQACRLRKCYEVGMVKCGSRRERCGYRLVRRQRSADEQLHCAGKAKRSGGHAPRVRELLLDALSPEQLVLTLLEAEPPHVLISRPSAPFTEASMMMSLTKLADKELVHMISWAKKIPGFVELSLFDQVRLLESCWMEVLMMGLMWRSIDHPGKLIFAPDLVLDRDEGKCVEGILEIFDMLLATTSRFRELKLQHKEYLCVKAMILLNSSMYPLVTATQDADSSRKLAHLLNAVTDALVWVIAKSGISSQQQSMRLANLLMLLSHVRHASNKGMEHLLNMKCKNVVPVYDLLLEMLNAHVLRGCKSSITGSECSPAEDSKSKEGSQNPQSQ

Each structure is given as a SMILES string. Only a part is listed here, and it is no random draw. The source made the active and inactive calls.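 Rule for the calls: active = compounds whose percent inhibition of the receptor-coactivator binding signal exceeds about 50% in the single-dose screen (limit read from the data); inactive = the rest.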

This assay concerns the target Estrogen receptor beta (Homo sapiens) (UniProt Q92731). Description: blockers of coactivator peptide binding to ERβ – biochemical, TR-FRET, ERβ LBD, SRC-1 peptide, primary screen (AID 633).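 Note: 0% = receptor plus peptide wells without compound and 100% = peptide-only wells.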 The settings on record: TR-FRET ER-beta LBD / SRC1-Cy5 peptide binding; at 25.6 µM; stronger effect = higher value. On the technique in general: In TR-FRET formats the signal depends on donor and acceptor labels being close together.
`Cc1nc2ccc3ccccc3c2o1.O=[N+]([O-])c1cc([N+](=O)[O-])c(O)c([N+](=O)[O-])c1`: the inhibition was inactive: 3.48%.
For `COc1ccccc1OP(C)(=O)Nc1ccc(C)c(C)c1` (configuration not stated), the inhibition was inactive: -9.12%.
The value for `CCc1ccc(OP(C)(=O)O)cc1` was inactive: -4.96%; that for `COc1ccccc1OP(C)(=O)Nc1ccc(C)cc1C` (configuration not stated) was inactive: -4.03%; that for `CP(=O)(Nc1ccccn1)Oc1ccccc1` (configuration not stated) was inactive: 9.9%.
On to `Cc1c(NP(C)(=O)Oc2ccc(C(C)C)cc2)c(=O)n(-c2ccccc2)n1C` (configuration not stated), for which the inhibition is inactive: 6.87%.
On to `CN(C)CCOC(=O)C(O)(c1ccccc1)C1CCCC1` (configuration not stated), for which the inhibition was inactive: 1.31%.
Take `COc1ccc(OP(C)(=O)Nc2ccccn2)cc1` (configuration not stated): the inhibition was inactive: 3.7%.
The same measure for `CP(=O)(Nc1ccc(Cl)cc1)Oc1ccc(F)cc1` (configuration not stated): inactive: 20%; for `CC(C)(C)c1ccc(OP(C)(=O)O)cc1`: inactive: -4.61%.
The value for `CP(=O)(Oc1ccccc1)N1CCOC1=O` (configuration not stated) was inactive: 0.37%; that for `COc1ccccc1OP(C)(=O)Nc1c(C)n(C)n(-c2ccccc2)c1=O` (configuration not stated) was inactive: -6.81%; that for `CP(=O)(OC12CC3CC(CC(C3)C1)C2)OC12CC3CC(CC(C3)C1)C2` was inactive: -0.51%.
The value for `CN(C)CCOC(=O)C(O)(c1ccccc1)C1CCCCC1` (configuration not stated) was inactive: -7.32%.
For `Cc1ccccc1NP(C)(=O)Nc1ccccc1C`, the inhibition was inactive: 3.85%.
The same measure for `CP(=O)(Nc1ccc2c(c1)OCCO2)Oc1ccccc1` (configuration not stated): inactive: 11%.
The same measure for `CCOP(C)(=S)SCC(=O)NC(C)(CC)C(=O)O` (configuration not stated): inactive: -3.73%; for `CP(=O)(Nc1ccccc1F)Oc1ccccc1` (configuration not stated): inactive: -6.04%.
With `CP(=O)(Nc1ccccc1)Oc1ccc(F)cc1` (configuration not stated), the inhibition is inactive: -5.27%.
On to `CCN(CC)CCCOC(=O)C(O)(c1ccccc1)C1CCCCC1` (configuration not stated), for which the inhibition is inactive: 1.74%.
The same measure for `Cc1cc(C)cc(OP(C)(=O)Nc2ccccn2)c1` (configuration not stated): inactive: -6.88%; for `Cc1ccc(C)c(NP(C)(=O)Oc2ccccc2)c1` (configuration not stated): inactive: 9.66%; for `Cc1cc(C)cc(OP(C)(=O)Nc2ccc(C)cc2C)c1` (configuration not stated): inactive: 2.68%.
The value for `Cc1nc2ccc3ccccc3c2s1.O=[N+]([O-])c1cc([N+](=O)[O-])c(O)c([N+](=O)[O-])c1` was inactive: 12.1%.
In the case of `COc1ccccc1OP(C)(=O)Nc1c(C)cccc1C` (configuration not stated), the inhibition was inactive: -20.7%.
Consider `CP(=S)(Nn1cnnc1)Oc1ccccc1` (configuration not stated), for which the inhibition is inactive: -1.87%.
The value for `CP(=O)(Nc1ccccn1)Oc1ccc(Cl)cc1` (configuration not stated) was active: 79.2%; that for `CCOP(C)(=S)SCC(=O)NC(C)C(=O)O` (configuration not stated) was inactive: -0.66%; that for `CP(=O)(NC(=O)Nc1ccccc1)Oc1ccccc1` (configuration not stated) was inactive: 1.62%.
The value for `COc1ccc(OP(C)(=O)Nc2cccc(F)c2)cc1` (configuration not stated) was inactive: -13.3%; that for `Cc1ccc(NP(C)(=O)Oc2ccccc2)c(C)c1` (configuration not stated) was inactive: 4.49%; that for `COc1ccccc1OP(C)(=O)Nc1ccc(C)cc1` (configuration not stated) was inactive: -3.55%.

One may read the inhibition as the change of the read-out against control, counted positive when it falls.
